# Data from ChEMBL document CHEMBL1123773, “The role of solvent-accessible surface area in determining partition coefficients” (J Med Chem, 1987).
# Columns and labels:
# [1] = octanol/water
# [2] = octanol/water; remark: listed apart in the source
# [3] = octanol/water; remark: listed apart in the source
smiles,measurement,setting,value
Nc1ccc(C(=O)O)cc1 [AMINOBENZOIC ACID],logP,[1],-1.52
same,logP,[2],0.88
same,logP,[3],-3.74
